# Measurements from patent US20260000735A1, “ENHANCED DIFFERENTIATION OF BETA CELLS” (Vertex Pharmaceuticals Incorporated, priority 2019, published 2026).
# Tested on: SC-β cells / SC-islets
# Assay: Glucose stimulated insulin secretion (GSIS), human C-peptide per 1000 cells
# Format: cell-based
substance,measurement,setting,value
low HSA: human serum albumin; low = 0.05%,GSIS function of SC-β cells,addition of 1% HSA,can increase GSIS function
same,glucose stimulated insulin secretion (GSIS),"low HSA (0.05%) in modified S5 media, 2.8 mM and 20 mM glucose, S6d12",associated with lower glucose stimulated insulin secretion (GSIS)
